The subject of assay [1] is naïve CD4+CD45RO− T cells. The experiment in a line: Cell viability assay, human naïve T cells. Conditions: hBAT at 1 ug/ml, 72 and 96 hours; FIG. 18.
The subject of assay [2] is human CD4+CD45RO+ effector/memory T cells. Briefly: Cell viability assay, human effector/memory T cells. The note with it: hBAT at 1 ug/ml, 72 and 96 hours; FIG. 18.

As for “hBAT-1: humanized monoclonal antibody with CDRs of murine mBAT-1 and human framework regions”, the “survival of lymphocytes (% difference in cell survival)” value in assay [1] is on record as “but not that of naïve CD4+CD45RO− lymphocytes”; in assay [2], “significant effect in enhancing the survival”.

Values taken from patent US9309308B2, “Monoclonal antibodies for tumor treatment” (CURETECH LTD., priority 2008, dated 2016).
